The values that follow come from patent US6310051A, “Use of chelating agents in the treatment of atherosclerotic conditions” (Nycomed Imaging AS, priority 1997, dated 2001).

The conditions of the series: rat, in vivo.

Take MnDPDP: the “absorption into the blood stream at peroral administration” value is on record as “absorbed into the blood stream”.
